Key:
Pan-02 = assay: Schedule dependence in Pan-02, Tables 7(A) and 7(B); type: in vivo, mice
Procedure: Unmodified IL-2 and PEG (7,000 MW) modified IL-2 (having an apparent molecular weight of 160 kD) were administered to mice who were transplanted with one of three tumor types; Meth A; B 16 melanoma; and Pan-02. The details are more specifically set out in Zimmerman et al., 1989, Cancer Research, 49:6521-6528 which is hereby incorporated by reference in its entirety.
Although the toxicity of PEG-IL-2 was reduced at these dose levels compared to those used in the B16 model, there was a schedule-dependent increase in toxicity as the interval between doses was decreased. No deaths were recorded on the Q7D×2 schedule, 1/30 mice died on Q4D×3, 5/30 died on Q3D×4, and 10/15 died on the 3 doses of the Q2D×5 schedule (Table 7(B)). An additional single study has shown that PEG-IL-2 at 24 mg/kg on the Q7D×2 schedule also was not lethal.
^a IL2 treatment started 7 days following s.c. tumor implant, i.v., Q
× 9. Five mice/group/experiment.
^b T C calculated as in Table 2.
^c % ILS is the percent increase in lifespan: calculated as the media
day of death of the treated group/median day of death of the controls,
^d Treatmentcaused deaths.
^f PEGIL-2 treatment started 7 days postimplant, i.v., on the
from calculations of survival. Days posttumor inoculation.

Meth A tumor [1] = assay: Meth A: continuous infusion versus bolus dosing, Table 4; type: in vivo, mice
Procedure: An experiment was performed to compare continuous infusion with bolus dosing. As shown below in Table 4, three IL-2 concentrations were administered via continuous infusion or bolus dosing and the results compared.
to IP bolus dosing in Meth A.

Meth A tumor [2] = assay: Meth A: effect of IL-2 peak serum concentration, PEG-IL-2 given concurrently with IL-2, Table 2; type: in vivo, mice
Procedure: Another experiment was performed to determine the effect of IL-2 peak serum concentration on therapeutic index. 160 kD PEG-IL-2 was administered concurrently with IL-2 at the doses indicated below in Table 2.
* PEGIL-2: 25 mg/kg (75 mg/m^2) or 12.5 mg/kg (37.5 mg/m^2) total
* Proleukin: 12.5 mg/kg (37.5 mg/m^2) or 7.5 mg/kg (22.5 mg/m^2)
given simultaneously with PEGIL-2.

MCA-105 sarcoma = conditions: thrice daily injections up to 18,000 I.U.s/day; cited from earlier work
Meth A tumor [3] = assay: Meth A tumor mice, one bolus dose of IL-2 or PEG-IL-2 (peak height and shape of clearance curve), Table 1; type: in vivo
Procedure: Unmodified IL-2 and PEG modified IL-2 were administered to mice who were transplanted with a Meth A tumor. The technical details for the materials and methods are similar to those specifically set out in Zimmerman et al., 1989, Cancer Research, 49:6521-6528 which is hereby incorporated by reference in its entirety.
The purpose of this experiment was to define the peak height and shape of the IL-2 blood concentration curve. Unmodified IL-2 (IL-2) and PEG modified IL-2 (having apparent molecular weights of 95 kD and 160 kD) were given to the mice in one bolus dose. […] Consequently, one can determine the effect of dose and duration by administering IL-2 and PEG-IL-2 molecules that will remain in the body for varying lengths of time.
PEG modified IL-2 (160 kD apparent molecular weight) was also administered to the mice. As shown in Table 5(B), four different treatment schedules were used: Q7D×2, Q4D×3, Q3D×4, and Q2D×5. The 3 total dose levels of 50, 25 or 12.5 mg/kg PEG-IL-2 were based on preliminary single dose studies. A single i.v. dose of PEG-IL-2 at 50, 25 or 12.5 mg/kg was lethal in 5/5, 2/5, or 0/5 Meth A bearing mice, respectively. When these same total doses were divided and delivered by the various schedules, the toxicity of the treatments was schedule dependent. […] The other combinations of dose and schedule were not lethal, with the exception of the 25 mg/kg dose on the Q2D×5 schedule (Table 5(B)). As discussed below, this dependence on the frequency of administration to produce the lethality is related to the minimum plasma concentration of L-2 attained between doses (i.e., the trough).

tumor = conditions: several hundred to several thousand IU, i.p., i.v. or s.c.; cited from earlier work
murine tumor = murine tumor studies; cited from earlier work
[4] = PEG 12.5 mg/kg total, i.v., Q7D×2
[5] = PEG 25 mg/kg total, i.v., Q7D×2

Q: Which “% ILS” value (Pan-02; 18 mg/kg total, i.v. QD×9) does the source give for “IL-2: Unmodified interleukin-2, recombinant or natural human; lymphokine, T cell growth factor” here?
A: 127%

Q: What about the Number deaths/total treated (Pan-02; 18 mg/kg total, i.v. QD×9) of the same substance?
A: 0/5

Q: And the “T - C” value (Pan-02; 18 mg/kg total, i.v. QD×9)?
A: 0.8 days

Q: What about the “% ILS” value (Pan-02; 45 mg/kg total, i.v. QD×9) of the same substance?
A: 143%

Q: What about the Number deaths/total treated (Pan-02; 45 mg/kg total, i.v. QD×9) of the same substance?
A: 0/10

Q: And the “T - C” value (Pan-02; 45 mg/kg total, i.v. QD×9)?
A: 0.5 days

Q: What about the “% ILS” value (Pan-02; 112.5 mg/kg total, i.v. QD×9) of the same substance?
A: < 100%

Q: What about the Number deaths/total treated (Pan-02; 112.5 mg/kg total, i.v. QD×9) of the same substance?
A: 2/5

Q: What about the “T - C” value (Pan-02; 112.5 mg/kg total, i.v. QD×9) of the same substance?
A: 0.4 days

Q: What about the “anti-tumor efficacy as a single agent” value (Pan-02; even at toxic levels) of the same substance?
A: limited anti-tumor efficacy

Q: And the “% TGI” value (Meth A tumor [1]; 0.3 mg/kg/D, CI (IP))?
A: 21%

Q: What about the Cures (Meth A tumor [1]; 0.3 mg/kg/D, CI (IP)) of the same substance?
A: 0/15

Q: What about the “% TGI” value (Meth A tumor [1]; 0.3 mg/kg/D, IP bolus) of the same substance?
A: 38%

Q: And the Cures (Meth A tumor [1]; 0.3 mg/kg/D, IP bolus)?
A: 1/15

Q: What about the “% TGI” value (Meth A tumor [1]; 0.6 mg/kg/D, CI (IP)) of the same substance?
A: 31%

Q: What about the Cures (Meth A tumor [1]; 0.6 mg/kg/D, CI (IP)) of the same substance?
A: 0/12

Q: What about the “% TGI” value (Meth A tumor [1]; 0.6 mg/kg/D, IP bolus) of the same substance?
A: 60%

Q: What about the Cures (Meth A tumor [1]; 0.6 mg/kg/D, IP bolus) of the same substance?
A: 1/15

Q: And the “% TGI” value (Meth A tumor [1]; 1.2 mg/kg/D, CI (IP))?
A: 81%

Q: And the Cures (Meth A tumor [1]; 1.2 mg/kg/D, CI (IP))?
A: 1/13

Q: What about the “% TGI” value (Meth A tumor [1]; 1.2 mg/kg/D, IP bolus) of the same substance?
A: 90%

Q: And the Cures (Meth A tumor [1]; 1.2 mg/kg/D, IP bolus)?
A: 4/15

Q: What about the “% TGI” value (Meth A tumor [2]; 12.5 mg/kg IL-2 alone) of the same substance?
A: 54.2%

Q: And the Cures (Meth A tumor [2]; 12.5 mg/kg IL-2 alone)?
A: 0/10

Q: What about the Deaths (Meth A tumor [2]; 12.5 mg/kg IL-2 alone) of the same substance?
A: 0/10

Q: What about the “Δ Body Weight” value (Meth A tumor [2]; 12.5 mg/kg IL-2 alone) of the same substance?
A: 1.08

Q: And the “effect on established metastases” value (MCA-105 sarcoma)?
A: induced regression of metastases

Q: What about the “% TGI” value (Meth A tumor [3]; 22.5 mg/kg single bolus) of the same substance?
A: 21%

Q: And the Cures (Meth A tumor [3]; 22.5 mg/kg single bolus)?
A: 0/5

Q: What about the “% TGI” value (Meth A tumor [3]; 75 mg/kg single bolus) of the same substance?
A: 56%

Q: And the Cures (Meth A tumor [3]; 75 mg/kg single bolus)?
A: 0/5

Q: And the toxicity (Meth A tumor [3]; doses of up to 75 mg/kg)?
A: not toxic

Q: And the “contribution of peak height alone to toxicity” value (Meth A tumor [3]; mouse, in vivo)?
A: contributes little to toxicity

Q: What about the “efficacy at low doses” value (tumor) of the same substance?
A: little efficacy

Q: What does the source list for “160 kD PEG IL-2: PEG (7,000 MW) modified IL-2 having an apparent molecular weight of 160 kD”?
A: % ILS (Pan-02; 2.5 mg/kg total, i.v. Q2D×5): 100%; Day of death, Median (Pan-02; 2.5 mg/kg total, i.v. Q2D×5): 15.0 Days post-tumor inoculation; Day of death, Range (Pan-02; 2.5 mg/kg total, i.v. Q2D×5): 19-35 Days post-tumor inoculation; T - C (Pan-02; 2.5 mg/kg total, i.v. Q2D×5): 3.5 days; % ILS (Pan-02; 3 mg/kg total, i.v. Q3D×4): 110%; Day of death, Median (Pan-02; 3 mg/kg total, i.v. Q3D×4): 23.5 Days post-tumor inoculation; Day of death, Range (Pan-02; 3 mg/kg total, i.v. Q3D×4): 20-40 Days post-tumor inoculation; T - C (Pan-02; 3 mg/kg total, i.v. Q3D×4): 1.6 days; % ILS (Pan-02; 3 mg/kg total, i.v. Q4D×3): 183%; Day of death, Median (Pan-02; 3 mg/kg total, i.v. Q4D×3): 34.5 Days post-tumor inoculation; Day of death, Range (Pan-02; 3 mg/kg total, i.v. Q4D×3): 24-42 Days post-tumor inoculation; T - C (Pan-02; 3 mg/kg total, i.v. Q4D×3): 2.1 days; % ILS (Pan-02; 3 mg/kg total, i.v. Q7D×2): 170%; Day of death, Median (Pan-02; 3 mg/kg total, i.v. Q7D×2): 32.5 Days post-tumor inoculation; Day of death, Range (Pan-02; 3 mg/kg total, i.v. Q7D×2): 24-38 Days post-tumor inoculation; T - C (Pan-02; 3 mg/kg total, i.v. Q7D×2): 3.2 days; % ILS (Pan-02; 6 mg/kg total, i.v. Q3D×4): 170%; Day of death, Median (Pan-02; 6 mg/kg total, i.v. Q3D×4): 32.5 Days post-tumor inoculation; Day of death, Range (Pan-02; 6 mg/kg total, i.v. Q3D×4): 20-49 Days post-tumor inoculation; T - C (Pan-02; 6 mg/kg total, i.v. Q3D×4): 2.9 days; % ILS (Pan-02; 6 mg/kg total, i.v. Q4D×3): 170%; Day of death, Median (Pan-02; 6 mg/kg total, i.v. Q4D×3): 32.5 Days post-tumor inoculation; Day of death, Range (Pan-02; 6 mg/kg total, i.v. Q4D×3): 23-46 Days post-tumor inoculation; T - C (Pan-02; 6 mg/kg total, i.v. Q4D×3): 1.9 days; % ILS (Pan-02; 6 mg/kg total, i.v. Q7D×2): 163%; Day of death, Median (Pan-02; 6 mg/kg total, i.v. Q7D×2): 31.5 Days post-tumor inoculation; Day of death, Range (Pan-02; 6 mg/kg total, i.v. Q7D×2): 20-49 Days post-tumor inoculation; T - C (Pan-02; 6 mg/kg total, i.v. Q7D×2): 5.7 days; % ILS (Pan-02; 12 mg/kg total, i.v. Q3D×4): 207%; Day of death, Median (Pan-02; 12 mg/kg total, i.v. Q3D×4): 38.0 Days post-tumor inoculation; Day of death, Range (Pan-02; 12 mg/kg total, i.v. Q3D×4): 29-49 Days post-tumor inoculation; T - C (Pan-02; 12 mg/kg total, i.v. Q3D×4): 4.8 days; % ILS (Pan-02; 12 mg/kg total, i.v. Q4D×3): 197%; Day of death, Median (Pan-02; 12 mg/kg total, i.v. Q4D×3): 36.5 Days post-tumor inoculation; Day of death, Range (Pan-02; 12 mg/kg total, i.v. Q4D×3): 21-45 Days post-tumor inoculation; T - C (Pan-02; 12 mg/kg total, i.v. Q4D×3): 4.3 days; % ILS (Pan-02; 12 mg/kg total, i.v. Q7D×2): 153%; Day of death, Median (Pan-02; 12 mg/kg total, i.v. Q7D×2): 30.0 Days post-tumor inoculation; T - C (Pan-02; 12 mg/kg total, i.v. Q7D×2): 4.5 days; lethality (Pan-02; 24 mg/kg, Q7D×2, additional single study): not lethal; deaths, all doses pooled (Pan-02; Q2D×5): 10/15; toxicity and therapeutic value (Pan-02; Q2D×5): quite toxic, and of limited therapeutic value; deaths, all doses pooled (Pan-02; Q3D×4): 5/30; deaths, all doses pooled (Pan-02; Q4D×3): 1/30; T-C, range (Pan-02; Q7D×2): 3.2 to 5.7 days; deaths, all doses pooled (Pan-02; Q7D×2): No deaths; mean decrease in rate of growth to 500 mm^3 (T-C) (Pan-02; Q7D×2, s.c. site, p<0.05): ~5 days; % TGI (Meth A tumor [2]; [4]): 99.7%; Cures (Meth A tumor [2]; [4]): 7/10; Deaths (Meth A tumor [2]; [4]): 0/10; Δ Body Weight (Meth A tumor [2]; [4]): 1.05; % TGI (Meth A tumor [2]; [5]): 99.6%; Cures (Meth A tumor [2]; [5]): 6/10; Deaths (Meth A tumor [2]; [5]): 0/10; Δ Body Weight (Meth A tumor [2]; [5]): 1.02; anti-tumor activity versus IL-2 on a dose per dose basis (murine tumor): approximately 24 -fold; lethality, single i.v. dose (Meth A tumor [3]; 12.5 mg/kg single i.v. dose): 0/5; % TGI (Meth A tumor [3]; 25 mg/kg single bolus): 35%; Cures (Meth A tumor [3]; 25 mg/kg single bolus): 0/3; toxicity and efficacy (Meth A tumor [3]; IL-2 remaining in the body for longer periods): toxic at different doses without being very effective; toxicity of high single doses (Meth A tumor [3]; high single doses): toxic
